Measured values as given in ChEMBL document CHEMBL4732045, “Amide Bond Bioisosteres: Strategies, Synthesis, and Successes” (J Med Chem, 2020).

By UniProt entry, the sequences of proteins in these tests, tags left out. Where a name states a change or a piece, a line headed by the entry shows the natural chain unless it says otherwise.
UniProt P41145: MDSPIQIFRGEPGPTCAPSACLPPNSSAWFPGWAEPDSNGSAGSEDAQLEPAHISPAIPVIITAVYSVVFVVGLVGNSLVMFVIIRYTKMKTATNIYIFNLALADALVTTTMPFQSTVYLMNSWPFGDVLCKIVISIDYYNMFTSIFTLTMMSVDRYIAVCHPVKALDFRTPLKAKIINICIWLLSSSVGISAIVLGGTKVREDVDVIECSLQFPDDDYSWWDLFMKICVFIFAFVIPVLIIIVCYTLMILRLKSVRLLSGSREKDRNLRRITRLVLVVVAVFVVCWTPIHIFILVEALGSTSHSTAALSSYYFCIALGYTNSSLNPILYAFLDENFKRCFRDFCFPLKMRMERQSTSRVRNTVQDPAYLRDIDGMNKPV

Key:
Homo sapiens [1] = organism: Homo sapiens; test: Selectivity ratio of EC50 for human kappa opioid receptor expressed in CHO-K1 cells to EC50 for human delta opioid receptor expressed in CHO-K1 cells; format: cell-based
[2] = molecular target: Kappa-type opioid receptor (Homo sapiens, UniProt P41145)
Homo sapiens [3] = organism: Homo sapiens; test: Selectivity ratio of EC50 for human mu opioid receptor expressed in CHO-K1 cells to EC50 for human delta opioid receptor expressed in CHO-K1 cells; format: cell-based

CC(C)C[C@H](NC(=O)[C@H](Cc1ccccc1)NC(=O)CNC(=O)C/C=C(\F)[C@@H](N)Cc1ccc(O)cc1)C(=O)O
Ratio EC50 (Homo sapiens [1]): > 2000 | EC50 [2]: > 10 µM | Ratio EC50 (Homo sapiens [3]): 12
